The text below walks through data of patent publication US4585777A, “(-)-Trans-4-(4-fluorophenyl)-3-(4-methoxyphenoxy)methylpiperidine for potentiating 5-HT” (A/S Ferrosan, priority 1984, dated 1986).

The subject of data set [1] is 5-HT uptake. The experiment in a line: Potentiation of 5-HTP (5-Hydroxytryptophane) induced hypermotility in mice (Procedure/Test 173); 5-HT potentiation or 5-HT uptake-inhibition. In kind it is in vivo, mice (female, NMRI strain). To be noted: Mus musculus, sc, read-out: Test 173: dose increasing the activity to double the activity of controls receiving 5-HTP alone (ED), mice, s.c.; 5-HTP 150 mg/kg i.p. 30 min before; motility 45-75 min after 5-HTP; water-soluble salt. The text has this: (§1) (J. Buus Lassen, European Journal of Pharmacology 47, 351-358 (1978)). See also Squires in Acta Pharmacol. et Toxicol, 1972, 31 Suppl. 1,35 for a description of a further procedure for measurement of the same 5-HT uptake-inhibitory phenomenon.
I. Potentiation of 5-HTP (5-Hydroxytryptophane) induced hypermotility in mice (Procedure 173)
This behavior is characterized by continuous jerky locomotion, head movements from side to side, abduction of the hind limbs, tremor, and lordosis.
Measurement of the motility after administration of test drugs to 5-HTP-pretreated mice is therefore used as a test for 5-HT-potentiation, which most probably proceeds through an inhibition of 5-HT uptake.
Method: Female mice of the NMRI strain weighing 20-22 g are used. The controls receive 5-HTP 150 mg/kg (15 ml/kg) i.p. (i.p.=intraperitoneally) and thirty (30) minutes later physiological saline (20 ml/kg) s.c. (s.c.=subcutaneously). The motility is measured by an Animex™ motimeter 45-75 minutes after 5-HTP administration. The test animals received test substances s.c. (20 ml/kg) instead of physiological saline. Five groups of two (2) mice are used for control and per dose of each test drug. the test substance is dosed according to the dose scale 1, 1.6, 2.5, 4, 6.3, and 10 mg/kg etc.
The best straight line is fitted through the points in a coordinate system (abscissa log dose, ordinate log activity). […]

Data set [2] can be described thus: in vivo. To be noted: mouse, sc, TI (Therapeutic Index), 001/173, LD50/ED50, mice s.c.
Source text: as §1

With `Fc1ccc([C@@H]2CCNC[C@H]2COc2ccc3c(c2)OCO3)cc1` (single isomer, unassigned) [FG 7051, reference compound], the ED (2-fold activity of controls) in data set [1] was 1.7 mg/kg. For the same compound, the selectivity ratio in data set [2] is 168.
